Structures are written as SMILES. The list shows a part of the results, in another mix than the full data. Calls of active or inactive are those of the source.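 The calls were made as follows: active = activation above the average of all compounds screened plus 3 SD, cutoff fixed separately per campaign (cut at about 7.5% in these data); inactive = the rest.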

The record followed here is PubChem BioAssay AID540364 (The Scripps Research Institute Molecular Screening Center, 2011).

The nature of this test: GAA850 frataxin promoter reporter upregulation – cell-based, luciferase luminescence, HEK293 lucGAA850, primary screen (AID 540364).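 Also: 0% = DMSO wells and 100% = 10 µM SAHA wells.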 Conditions: HEK293 lucGAA850 FXN promoter luciferase reporter, 24 h; at 6 µM; hits give high values; percent of 10 µM SAHA response. On the technique in general: A reporter such as luciferase makes a cellular process visible.
For the compound `CCC(=O)N(c1ccccc1)C1(COC)CCN(CCc2cccs2)CC1`, the activation is inactive: -7.19%. Take `CCC(=O)N(c1ccccc1)C1(COC)CCN(CCn2nnn(CC)c2=O)CC1`: the activation is inactive: -1.3%.
